Results taken from ChEMBL document CHEMBL4145540, “Synthesis and biological evaluation of carbamates derived from aminocombretastatin A-4 as vascular disrupting agents” (Eur J Med Chem, 2018).

tested on: A549; assay: Cell cycle arrest in human A549 cells assessed as accumulation at G0/G1 phase at 70 nM after 20 hrs by propidium iodide staining based flow cytometry (reference value: 66 +/- 1%); format: functional

| Compound | Activity |
| --- | --- |
| COc1ccc(/C=C\c2cc(OC)c(OC)c(OC)c2)cc1NC(=O)Oc1ccc(Cl)c(C)c1 | 24% |

tested on: A549; assay: Cell cycle arrest in human A549 cells assessed as accumulation at G0/G1 phase at 750 nM after 20 hrs by propidium iodide staining based flow cytometry (reference value: 66 +/- 1%); format: functional

| Compound | Activity |
| --- | --- |
| COc1ccc(/C=C\c2cc(OC)c(OC)c(OC)c2)cc1NC(=O)Oc1cc(C)cc(C)c1 | 24% |

organism: Bos taurus; assay: Inhibition of calf brain tubulin polymerization in glycerol-assembly buffer assessed as critical concentration for tubulin assembly at 27.5 uM measured every 30 secs for 2 hrs in presence of GTP

| Compound | Activity |
| --- | --- |
| COc1ccc(/C=C\c2cc(OC)c(OC)c(OC)c2)cc1NC(=O)Oc1ccc(C)c(C)c1 | 21 µM |
| COc1ccc(/C=C\c2cc(OC)c(OC)c(OC)c2)cc1NC(=O)Oc1ccc(C(F)(F)F)cc1 | 20 µM |
| COc1ccc(/C=C\c2cc(OC)c(OC)c(OC)c2)cc1NC(=O)Oc1c(C)cccc1C | 17 µM |
| COc1ccc(/C=C\c2cc(OC)c(OC)c(OC)c2)cc1NC(=O)Oc1cccc(C)c1C | 25 µM |
| COc1ccc(/C=C\c2cc(OC)c(OC)c(OC)c2)cc1NC(=O)Oc1ccc(Br)cc1 | 23 µM |
| COc1ccc(/C=C\c2cc(OC)c(OC)c(OC)c2)cc1NC(=O)Oc1ccc(F)cc1 | 22 µM |
| COc1cccc(OC(=O)Nc2cc(/C=C\c3cc(OC)c(OC)c(OC)c3)ccc2OC)c1 | 20 µM |
| COc1ccc(/C=C\c2cc(OC)c(OC)c(OC)c2)cc1NC(=O)Oc1cc(C)cc(C)c1 | 24 µM |
| COc1ccc(OC(=O)Nc2cc(/C=C\c3cc(OC)c(OC)c(OC)c3)ccc2OC)cc1 | 23 µM |
| COc1ccc(/C=C\c2cc(OC)c(OC)c(OC)c2)cc1NC(=O)Oc1ccc(C)cc1 | 25 µM |
| COc1ccc(/C=C\c2cc(OC)c(OC)c(OC)c2)cc1N | 23 µM |
| COc1ccc(/C=C\c2cc(OC)c(OC)c(OC)c2)cc1NC(=O)Oc1cccc(C)c1 | 20 µM |
| COc1ccc(/C=C\c2cc(OC)c(OC)c(OC)c2)cc1NC(=O)Oc1cccc(C(F)(F)F)c1 | 14 µM |
| COc1ccc(/C=C\c2cc(OC)c(OC)c(OC)c2)cc1NC(=O)Oc1cccc(Cl)c1 | 23 µM |
| COc1ccc(/C=C\c2cc(OC)c(OC)c(OC)c2)cc1NC(=O)Oc1ccc(C)c(Cl)c1 | 24 µM |
| COc1ccc(/C=C\c2cc(OC)c(OC)c(OC)c2)cc1NC(=O)Oc1cccc(F)c1 | 24 µM |
| COc1ccc(/C=C\c2cc(OC)c(OC)c(OC)c2)cc1NC(=O)Oc1ccc(Cl)cc1 | 24 µM |
| COc1ccc(/C=C\c2cc(OC)c(OC)c(OC)c2)cc1NC(=O)Oc1ccc(Cl)c(C)c1 | 24 µM |

More lines, now with the values ahead:

| Activity | Compound |
| --- | --- |
| 21 µM | COc1ccc(/C=C\c2cc(OC)c(OC)c(OC)c2)cc1NC(=O)Oc1ccccc1Cl |
| 23 µM | COc1ccc(/C=C\c2cc(OC)c(OC)c(OC)c2)cc1NC(=O)Oc1ccccc1C(F)(F)F |
| 20 µM | COc1ccc(/C=C\c2cc(OC)c(OC)c(OC)c2)cc1NC(=O)Oc1ccccc1 |
| 22 µM | COc1ccc(/C=C\c2cc(OC)c(OC)c(OC)c2)cc1NC(=O)Oc1ccccc1C |
| 23 µM | COc1ccc(/C=C\c2cc(OC)c(OC)c(OC)c2)cc1NC(=O)Oc1cccc(Cl)c1C |
| 22 µM | COc1ccc(/C=C\c2cc(OC)c(OC)c(OC)c2)cc1NC(=O)Oc1ccccc1Br |
| 18 µM | COc1ccc(/C=C\c2cc(OC)c(OC)c(OC)c2)cc1NC(=O)Oc1ccccc1F |
| 25 µM | COc1ccc(/C=C\c2cc(OC)c(OC)c(OC)c2)cc1NC(=O)Oc1cccc(Br)c1 |
| 16 µM | COc1ccc(/C=C\c2cc(OC)c(OC)c(OC)c2)cc1NC(=O)Oc1ccccc1OC |

tested on: A549; assay: Cell cycle arrest in human A549 cells assessed as accumulation at S phase at 2000 nM after 20 hrs by propidium iodide staining based flow cytometry (reference value: 16 +/- 1%); format: functional

| Compound | Activity |
| --- | --- |
| COc1ccc(/C=C\c2cc(OC)c(OC)c(OC)c2)cc1NC(=O)Oc1c(C)cccc1C | 17% |
